# Test results from PMC4885489, “Prediction of Drug-Drug Interactions Arising from CYP3A induction Using a Physiologically Based Dynamic Model” (Drug Metabolism and Disposition, 2016).
# Assays:
# [1] = Monoprotic Base; ref (Meuldermans et al., 1982); (Mather, 1983); cited from earlier work
# [2] = Gut parameters (Qgut, fugut), simulation input; set-up: species or system human; settings: Optimised to recover observed FG (Kharasch and Stubbert, 2013 and others)
# [3] = ref Meta-analysis (Bower and Hull, 1982); (Bentley et al., 1983) and others; cited from earlier work
# [4] = cited from earlier work
# [5] = ref Meta-analysis (Meuldermans et al., 1982); (Bower and Hull, 1982) and 5 others; cited from earlier work
# [6] = test system: CYP3A4; settings: cited from earlier work; for AUC: before rifampicin, mean (CV)
# [7] = ref (Mather, 1983); cited from earlier work
# [8] = ref (Meuldermans et al., 1982) (Beaumont et al., 2011); cited from earlier work
structure (smiles),measurement,setting,value
CCC(=O)N(c1ccccc1)C1(COC)CCN(CCn2nnn(CC)c2=O)CC1,pKa(s),[1],6.5
same,Qgut,[2],2.2 L/h
same,Vss - observed,[3],0.371 L/kg
same,CLiv,"[4]; ref Meta-analysis (Bovill et al., 1982), (Bower and Hull, 1982) and others",19.9 L/h
same,CLR,"[4]; ref Meta-analysis (Meuldermans et al., 1988), (Schuttler and Stoeckel, 1982)",0.06 L/h
same,fraction unbound,[5],0.12
same,AUC,"[6]; ALF 0.015 mg/kg i.v., n=6, ref Phimmasone and Kharasch, 2001",111 (52.1) ng/mL.h
same,AUC,"[6]; ALF 0.015 mg/kg i.v., n=10, ref Kharasch et al., 2004",64.8 (41.0) ng/mL.h
same,1/AUC Ratio,"[6]; ALF 0.015 mg/kg i.v., rifampicin 600 mg daily for 5 days, ref Kharasch et al., 2004",2.67
same,1/AUC Ratio,"[6]; ALF 0.015 mg/kg i.v., rifampicin 600 mg daily for 5 days, ref Phimmasone and Kharasch, 2001",2.31
same,AUC,"[6]; ALF 0.06 mg/kg oral, n=10, ref Kharasch et al., 2004",103 (29.1) ng/mL.h
same,1/AUC Ratio,"[6]; ALF 0.06 mg/kg oral, rifampicin 600 mg daily for 6 days, ref Kharasch et al., 2004",21.9
same,AUC,"[6]; ALF 1 mg i.v., n=6, ref Kharasch et al., 2011",59.0 (45.8) ng/mL.h
same,1/AUC Ratio,"[6]; ALF 1 mg i.v., rifampicin 600 mg daily for 6 days, ref Kharasch et al., 2011",2.81
same,AUC,"[6]; ALF 4 mg oral, n=6, ref Kharasch et al., 2011",108 (63.0) ng/mL.h
same,1/AUC Ratio,"[6]; ALF 4 mg oral, rifampicin 600 mg daily for 5 days, ref Kharasch et al., 2011",16.9
same,logP,[7],2.16
same,B:P,[8],0.66

# Read-outs that look alike come from different tables or passages of the source. Only a part of the results on these compounds is given; other tests are left out.
